Data reported in US7875638B2, “Synthesis of epothilones, intermediates thereto, analogues and uses thereof” (Sloan-Kettering Institute for Cancer Research, priority 2002, dated 2011).

System: human mammary carcinoma MX-1 xenograft
Experiment: MX-1 xenograft in nude mice
Details: in vivo

## C/C1=C/CC(/C(C)=C/c2csc(C)n2)OC(=O)C[C@H](O)C(C)(C)C(=O)[C@H](C)[C@@H](O)[C@@H](C)CCC1 (some centres unmarked) [Compound 1, 12,13-desoxyepothilone B, reference compound]
  Mouse tumors disappeared, large MX-1 tumors (0.5 g): 3 of 4
mouse
  Mice relapsed on day 10 after suspension of treatment: 5/10
  Tumor free after Q2Dx6 6 hr-iv. infusion (mice): seven out of seven and 10/10
  Tumor reappeared on day 10 after administration (mice): 5/10
  Tumor reappeared on the 8th day after stopping treatment (mice): 2 out of five

Several values for one entry are separate records, joined by “and”; a condition that tells them apart may be missing. Equal entries are not always repeated.
